## AlphaSeq binding of Ab-14 heavy chain variants to a spike HR2 peptide

Data: MIT Lincoln Laboratory AlphaSeq set, Engelhart et al. 2022, doi:10.1038/s41597-022-01779-4, as distributed in FLAb.

Antigen: PDVDLGDISGINAS, a 14-residue peptide of the SARS-CoV-2 spike HR2 region.

Ab-14 is the parent antibody, in scFv form: VH, then a 15-residue (Gly4Ser)3 linker, then VL. The light chain is unchanged in all variants.
VH: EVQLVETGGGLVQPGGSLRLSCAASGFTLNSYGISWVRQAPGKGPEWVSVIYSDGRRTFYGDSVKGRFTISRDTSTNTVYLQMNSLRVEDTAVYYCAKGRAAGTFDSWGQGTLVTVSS
VL: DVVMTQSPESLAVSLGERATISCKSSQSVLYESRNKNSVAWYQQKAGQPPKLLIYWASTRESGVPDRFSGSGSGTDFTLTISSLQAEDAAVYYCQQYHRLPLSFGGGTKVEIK

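The parent was found by panning a naive human phage display library on the peptide. The library (AAYL49) carries one to three amino acid substitutions per variant, with no insertions or deletions. The scFvs were displayed on barcoded MATa yeast, the peptide on MATalpha yeast. The frequency of each diploid, read from paired DNA barcodes, reflects how well the two displayed proteins bind. A regression on co-assayed BCL2-family reference pairs converts the normalised counts of each replicate to an apparent Kd. Each pool was mated in three replicate cultures.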

Sequences are complete VH domains. Kd is apparent (estimated from mating counts) and averaged on the log scale over replicates with a signal. Smaller is tighter. "no signal" marks a missing value. The strain was present, yet no cells mated with the target were sequenced in any replicate, which points to weak or no binding. Entries are sorted by rising average, undetected variants last. Background: pairings of library AAYL49 with three empty control strains gave a value in 15% of cases (median 11 µM, 5th percentile 680 nM). Values in that range, when seen in few replicates, are hard to tell from nonspecific mating. The control count says in how many pairings with the empty strains this scFv gave a signal. Parent in this assay: reference entry 4.4 nM, copy in this library 13 µM (one replicate of three).

VH,Kd (apparent),seen in,signal with controls
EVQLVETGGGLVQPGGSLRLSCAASGFGLNAYGISWVRQAPGKGPEWVSVIYSDGRRTFYGDSVKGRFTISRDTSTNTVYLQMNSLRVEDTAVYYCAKGRAAGTRDSWGQGTLVTVSS,21 nM,3/3,5/9
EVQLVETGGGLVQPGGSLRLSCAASGFTLNSYGISWVRQAPGKGPEWVSVIYSDGQRTFYGDSVKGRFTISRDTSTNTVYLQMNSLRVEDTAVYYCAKGRAVGTFDSWGQGTLVTVSS,100 nM,3/3,6/9
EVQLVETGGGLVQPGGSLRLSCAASGFTLNSYAISWVRQAPGKGPEWVSMIYSDGRRTFYGDSVKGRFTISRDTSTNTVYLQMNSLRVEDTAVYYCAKGRAAGTFDSWGQGTLVTVSS,710 nM,1/3,1/9
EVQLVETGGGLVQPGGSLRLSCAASGFELNSYGISWVRQAPGKGPEWVSVIYSDGRRTFYGDSVKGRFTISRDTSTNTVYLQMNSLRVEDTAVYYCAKGCAAGTFDEWGQGTLVTVSS,1.1 µM,3/3,0/9
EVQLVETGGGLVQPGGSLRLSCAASFFTLNSYGISWVRQAPGKGPEWVSKIYSDGRRTFYGLSVKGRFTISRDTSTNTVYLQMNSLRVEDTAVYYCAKGRAAGTFDSWGQGTLVTVSS,9.5 µM,2/3,5/9
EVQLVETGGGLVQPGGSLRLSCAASGFTLNSYGASWVRQAPGKGPEWVSVIYSSGRRTFYGDSVKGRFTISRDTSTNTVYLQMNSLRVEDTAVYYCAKCRAAGTFDSWGQGTLVTVSS,10 µM,2/3,0/9
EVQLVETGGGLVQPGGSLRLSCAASGFTINSYGWSWVRQAPGKGPEWVSVIYSDGRHTFYGDSVKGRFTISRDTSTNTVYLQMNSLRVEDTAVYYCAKGRAAGTFDSWGQGTLVTVSS,33 µM,2/3,3/9

The remaining entries, values ahead:

Kd (apparent),seen in,signal with controls,VH
45 µM,1/3,0/9,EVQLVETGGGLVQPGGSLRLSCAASGFTLNSYGIEWVRQAPGKGPEWVSVIYSDGRATFAGDSVKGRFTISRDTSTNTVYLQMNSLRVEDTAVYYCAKGRAAGTFDSWGQGTLVTVSS
310 µM,1/3,1/9,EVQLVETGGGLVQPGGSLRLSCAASGFTLNSYGISWVRQAPGKGPEWVSVIYSDGRRTFYGDSVCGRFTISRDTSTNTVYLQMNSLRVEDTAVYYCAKGRAAQTFSSWGQGTLVTVSS
no signal,0/3,0/9,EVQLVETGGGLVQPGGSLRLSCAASNFTLRSYGISWVRQAPGKGPEWVSVFYSDGRRTFYGDSVKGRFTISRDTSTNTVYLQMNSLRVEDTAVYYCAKGRAAGTFDSWGQGTLVTVSS
no signal,0/3,1/9,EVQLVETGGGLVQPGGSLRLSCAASGLTLNSYGISWVRQAPGKGPEWVSVIYSDGRRFFVGDSVKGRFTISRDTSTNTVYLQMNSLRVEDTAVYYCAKGRAAGTFDSWGQGTLVTVSS
no signal,0/3,0/9,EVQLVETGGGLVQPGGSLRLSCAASGFTKNSYGIFWVRQAPGKGPEWVSVIYSLGRRTFYGDSVKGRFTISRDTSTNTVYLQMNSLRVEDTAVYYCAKGRAAGTFDSWGQGTLVTVSS
no signal,0/3,5/9,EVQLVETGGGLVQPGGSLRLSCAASHFTENSYGISWVRQAPGKGPEWVSVRYSDGRRTFYGDSVKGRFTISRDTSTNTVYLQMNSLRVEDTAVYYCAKGRAAGTFDSWGQGTLVTVSS
no signal,0/3,1/9,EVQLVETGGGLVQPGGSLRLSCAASGFTLNTYGIQWVRQAPGKGPEWVSVIYSDGRRTFYGWSVKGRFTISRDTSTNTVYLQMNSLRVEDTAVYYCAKGRAAGTFDSWGQGTLVTVSS
no signal,0/3,1/9,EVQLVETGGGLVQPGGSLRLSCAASGFTLNSYGISWVRQAPGKGPEWVSVIYSDGRRTPNGDSVKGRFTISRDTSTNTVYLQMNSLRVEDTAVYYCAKGRAAYTFDSWGQGTLVTVSS

Again, the first 2 entries without any signal:

| VH | Kd (apparent) | seen in | signal with controls |
|---|---|---|---|
| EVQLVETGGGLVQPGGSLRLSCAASNFTLRSYGISWVRQAPGKGPEWVSVFYSDGRRTFYGDSVKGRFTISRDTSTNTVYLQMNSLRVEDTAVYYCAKGRAAGTFDSWGQGTLVTVSS | no signal | 0/3 | 0/9 |
| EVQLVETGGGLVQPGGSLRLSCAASGLTLNSYGISWVRQAPGKGPEWVSVIYSDGRRFFVGDSVKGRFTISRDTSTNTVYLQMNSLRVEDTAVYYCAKGRAAGTFDSWGQGTLVTVSS | no signal | 0/3 | 1/9 |